Assays:
[1] = In vitro assays to determine protein stability; type: in vitro ADME; conditions: compared to PP (PP1-36); statement in words
human Y4 receptor [2] = biological target: T1, human Y4 receptor (Homo sapiens, UniProt P50391); assay: Human Y4 receptor affinity assay (125I-PP competition binding, transfected COS-7 cells); conditions: refers to Table 1
T1 construct: expressed in transfected cells; host or cells: COS-7

Amino acid sequences for entries named in this document (tags omitted). A change or cut given only in a name is not applied to a line headed by its entry.
UniProt P50391: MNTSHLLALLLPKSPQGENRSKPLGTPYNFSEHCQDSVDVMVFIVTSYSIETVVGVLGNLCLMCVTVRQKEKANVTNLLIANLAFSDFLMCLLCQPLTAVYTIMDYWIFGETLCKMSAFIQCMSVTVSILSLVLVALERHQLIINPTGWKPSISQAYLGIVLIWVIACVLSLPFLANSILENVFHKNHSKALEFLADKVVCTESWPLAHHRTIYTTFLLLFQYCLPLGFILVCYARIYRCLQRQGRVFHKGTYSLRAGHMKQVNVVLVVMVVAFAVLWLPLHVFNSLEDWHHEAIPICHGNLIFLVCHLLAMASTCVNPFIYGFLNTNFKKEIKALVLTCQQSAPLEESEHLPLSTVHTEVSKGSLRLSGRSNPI

human Y4 receptor [3] = biological target: T1, human Y4 receptor; assay: Human Y4 receptor potency assay (inositol phosphate turnover, COS-7 cells); type: cell-based; conditions: refers to Table 2; inositol phosphate turnover assay in transfected COS-7 cells; read-out: agonist potency on the Y4 receptor (EC50)

Row | Compound | protein stability [1] | IC50 (human Y4 receptor [2]) | EC50 (human Y4 receptor [3])
1 | CC[C@H](C)[C@H](NC(=O)[C@H](Cc1ccc(O)cc1)NC(=O)[C@H](CCCNC(=N)N)NC(=O)[C@H](CCCNC(=N)N)NC(=O)[C@H](CC(C)C)NC(=O)[C@H](CC(=O)O)NC(=O)[C@H](C)NC(=O)[C@H](C)NC(=O)[C@H](Cc1ccc(O)cc1)NC(=O)[C@H](CCC(N)=O)NC(=O)[C@H](C)NC(=O)[C@H](CCSC)NC(=O)[C@H](CCC(N)=O)NC(=O)[C@H](CCC(=O)O)NC(=O)[C@@H]1CCCN1C(=O)[C@@H](NC(=O)[C@H](C)NC(=O)[C@H](CC(N)=O)NC(=O)[C@H](CC(=O)O)NC(=O)CNC(=O)[C@@H]1CCCN1C(=O)[C@H](Cc1ccc(O)cc1)NC(=O)[C@@H](NC(=O)[C@@H]1CCCN1C(=O)[C@H](CCC(=O)O)NC(=O)[C@H](CC(C)C)NC(=O)[C@@H]1CCCN1)C(C)C)[C@@H](C)O)C(=O)N[C@@H](CC(N)=O)C(=O)N[C@@H](CCSC)C(=O)N[C@@H](CC(C)C)C(=O)N[C@H](C(=O)N[C@@H](CCCNC(=N)N)C(=O)N1CCC[C@H]1C(=O)N[C@@H](CCCNC(=N)N)C(=O)N[C@@H](Cc1ccc(O)cc1)C(N)=O)[C@@H](C)O [PP2-36] | more stable | – | –
2 | CC[C@H](C)[C@H](NC(=O)[C@H]1CSSC[C@H](NC(=O)[C@H](C)N)C(=O)N[C@@H](CC(C)C)C(=O)N[C@@H](CCC(=O)O)C(=O)NCCCCCCCC(=O)N[C@@H](CCCNC(=N)N)C(=O)N[C@@H](CCCNC(=N)N)C(=O)N1)C(=O)N[C@@H](CC(N)=O)C(=O)N[C@@H](CCSC)C(=O)N[C@@H](CC(C)C)C(=O)N[C@H](C(=O)N[C@@H](CCCNC(=N)N)C(=O)N1CCC[C@H]1C(=O)N[C@@H](CCCNC(=N)N)C(=O)N[C@@H](Cc1ccc(O)cc1)C(N)=O)[C@@H](C)O [[Cys2,Aoc5-24,D-Cys27]PP] | – | 286 nM | –
3 | CC[C@H](C)[C@H](NC(=O)[C@H]1CSSC[C@H](NC(=O)[C@H](C)N)C(=O)N[C@@H](CC(C)C)C(=O)N[C@@H](CCC(=O)O)C(=O)N2CCC[C@H]2C(=O)N[C@@H](C(C)C)C(=O)N[C@@H](Cc2ccc(O)cc2)C(=O)N2CCC[C@H]2C(=O)NCC(=O)N[C@@H](CC(=O)O)C(=O)N[C@@H](CC(N)=O)C(=O)N[C@@H](C)C(=O)N[C@@H]([C@@H](C)O)C(=O)N2CCC[C@H]2C(=O)N[C@@H](CCC(=O)O)C(=O)N[C@@H](CCC(N)=O)C(=O)N[C@@H](CCSC)C(=O)N[C@@H](C)C(=O)N[C@@H](CCC(N)=O)C(=O)N[C@@H](Cc2ccc(O)cc2)C(=O)N[C@@H](C)C(=O)N[C@@H](C)C(=O)N[C@@H](CC(=O)O)C(=O)N[C@@H](CC(C)C)C(=O)N[C@@H](CCCNC(=N)N)C(=O)N[C@@H](CCCNC(=N)N)C(=O)N1)C(=O)N[C@@H](CC(N)=O)C(=O)N[C@@H](CCSC)C(=O)N[C@@H](CC(C)C)C(=O)N[C@H](C(=O)N[C@@H](CCCNC(=N)N)C(=O)N1CCC[C@H]1C(=O)N[C@@H](CCCNC(=N)N)C(=O)N[C@@H](Cc1ccc(O)cc1)C(N)=O)[C@@H](C)O [[Cys2,D-Cys27]PP] | more stable | 8.2 nM | 4.6 nM
